Measured affinities in a library of Ab-14 heavy chain variants

The measurements come from Li et al. 2023 (doi:10.1038/s41467-023-39022-2) through the FLAb antibody collection.

Binding partner: SARS-CoV-2 spike HR2 peptide, sequence PDVDLGDISGINAS.

Ab-14 is the parent antibody, in scFv form: VH, then a 15-residue (Gly4Ser)3 linker, then VL. The light chain is unchanged in all variants.
VH: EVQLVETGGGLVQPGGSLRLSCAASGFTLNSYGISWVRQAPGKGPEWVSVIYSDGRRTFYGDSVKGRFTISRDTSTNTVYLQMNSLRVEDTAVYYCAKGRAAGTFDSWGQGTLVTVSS
VL: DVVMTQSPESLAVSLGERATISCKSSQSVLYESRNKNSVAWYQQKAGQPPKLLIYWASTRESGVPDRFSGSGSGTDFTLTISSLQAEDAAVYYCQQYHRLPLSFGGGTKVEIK

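The starting antibody came from a phage panning campaign against this peptide. This is the validation round: designs drawn from the data on random variants, tested in the same kind of assay. Several design methods are mixed in this list. In AlphaSeq, yeast of one mating type display the scFv and yeast of the other type display the target. Mating (16 h, 30 °C) was followed by selection of diploids and sequencing of their barcodes. Each replicate has its own calibration line, from reference interactions of the BCL2 family. The assay was run in six technical replicates.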

Each variant is given by its three heavy chain CDRs, as the data file delimits them; those of the parent are GFTLNSYGIS, VIYSDGRRTFYGDSVK, GRAAGTFDS. This list holds designs with more than six substitutions. Values are apparent Kd, the geometric mean of the replicates that gave a signal; lower means stronger binding. A pair that was not seen in any replicate is written "no signal"; this usually means weak binding, but a binder can also be missed. Three control strains display no target. For all heavy chain designs, 1% of the pairings with them gave a signal, with a median of 120 nM and one signal in twenty below 7.0 nM, so weak values seen in few replicates may be background. The authors averaged sequences with at least three values out of six and counted those with two or fewer as poor binders. A sequence measured in both rounds can read differently, since the two assays cover different ranges.

With GFDLGEYGIS / VIYADGHRTAYVTKVK / GTIGGMFFL the result was 1.3 nM (6 of 6 replicates).
With GFDLNEYGIS / VIYADGQRTAYADSVK / GEVAGTFDE the result was 510 pM (6 of 6 replicates).
With GFNIDEYGIS / VIYADGQRLSYDDNVK / GGITGTFLN the result was 52 nM (1 of 6 replicates).
With GFEIQEFGIS / VIYADGERTNYAENVK / GTLAGTFTT the result was 220 nM (5 of 6 replicates).
With GFDLNEYGIS / VIYADGSRKAYADSVK / GNVAGTFDI the result was 160 pM (6 of 6 replicates).
With GENLSEYGIS / VIYADGKKTAYSNAVK / GANGGIFVV the result was no signal (0 of 6 replicates).
With GDGLEDYGIS / VIYADGMRTYYAPSVK / GEVNGVMDI the result was no signal (0 of 6 replicates).
With GFDLDEYGIS / VIYADGRRTAYADSVK / GNNAGTFDV the result was 1.2 nM (6 of 6 replicates).
With GFDLDEYGIS / VIYADGMRTAYADSVK / GTNAGTFDQ the result was 160 pM (6 of 6 replicates).
With GFQLDEQGIS / VIYADGVRCSYAQSVK / GANSGVIDV the result was 110 nM (5 of 6 replicates).
With GADLNEYGIS / VIYADGDRKAFQDDVK / GTNAGDFDI the result was no signal (0 of 6 replicates).
With GFDLNEYGIS / VIYADGKRQAYADSVK / GENAGTFDV the result was 1.0 nM (6 of 6 replicates).
With GFDLEEYGIS / VIYADGKRTAYADSVK / GNVAGTFDL the result was 760 pM (6 of 6 replicates).
With GFDLSEYGIS / VIYADGRRTFYSDSVK / GEVAGTFDV the result was 220 pM (6 of 6 replicates).
With GFDLNEYGIS / VIYADGRRTFYADDVK / GEVAGTFDL the result was 290 pM (6 of 6 replicates).
With GFDLNEYGIS / VIYADGKRTFYADSVK / GTNAGTFDV the result was 250 pM (6 of 6 replicates).
With GFDLDEYGIS / VIYADGRRTAYSGAFK / GNLQYGFMV the result was 56 nM (6 of 6 replicates).
With GFDLNEYGIS / VIYADGRRTAYSDSVK / GTNAGTFDV the result was 280 pM (6 of 6 replicates).
With GFNLEDYGIS / VIYSDGRRTFYGDEVK / GSAAGKFLS the result was no signal (0 of 6 replicates).
With GFDLNEYGIS / VIYADGMRTAYSDSVK / GEVAGTFDM the result was 410 pM (6 of 6 replicates).
With GKSLDEYGIS / VIYADGLRKVYADSVK / GQFDDAMDL the result was no signal (0 of 6 replicates).
With GFDLNEYGIS / VIYADGSRTFYADSVK / GEVAGTFDI the result was 610 pM (6 of 6 replicates).
With GFDLNEYGIS / VIYADGQRTAYADSVK / GNEAGTFDT the result was 450 pM (6 of 6 replicates).
With GFDLNEYGIS / VIYADGMRTFYADSVK / GEVAGTFDI the result was 240 pM (6 of 6 replicates).
With FQLLDDYGIS / VIYADGKRQAYVNSVK / GEHAGTFDV the result was 480 pM (6 of 6 replicates).
With GFDLDEMGIS / VIYADGRRTAYSNAFK / GNNQYGLMV the result was no signal (0 of 6 replicates).
With GFDLNEYGIS / VIYADGKRTAYADSVK / GANAGTFDQ the result was 93 pM (3 of 6 replicates).
With GDSLNEYGIS / VIYADGRRSVYTDKVK / GHAGGTFMS the result was no signal (0 of 6 replicates).
With GFGLGEYGIS / VIYADGMRAAYVTSVK / GYEAGTFFT the result was no signal (0 of 6 replicates).
With GFDLNEYGVS / VIYADGHRTQYSDNVK / GSESASIQN the result was no signal (0 of 6 replicates).
With GFDLNEYGIS / VIYADGRRTVYADSVK / GNQAGTFDV the result was 210 pM (6 of 6 replicates).
With GFDLNEYGIS / VIYADGKRTFYADSVK / GQNAGTFDQ the result was 120 nM (1 of 6 replicates).
With GFDINEYGIS / VIYADGRRTSYADSVK / GNQGGTFDL the result was 1.3 nM (6 of 6 replicates).

A selection of 5 entries from above:

CDR-H1,CDR-H2,CDR-H3,Kd,seen in
GFNLEDYGIS,VIYSDGRRTFYGDEVK,GSAAGKFLS,no signal,0/6
GFDLDEYGIS,VIYADGMRTAYADSVK,GTNAGTFDQ,160 pM,6/6
GFDLNEYGIS,VIYADGKRTFYADSVK,GTNAGTFDV,250 pM,6/6
GFDLDEMGIS,VIYADGRRTAYSNAFK,GNNQYGLMV,no signal,0/6
GFDLNEYGIS,VIYADGRRTAYSDSVK,GTNAGTFDV,280 pM,6/6